Assays:
[1] = target: Acetylcholinesterase (Electrophorus electricus) (UniProt O42275); experiment: Reactivation of diisopropylfluorophosphate-inhibited electric eel AChE using acetylcholine as substrate assessed as change in optical density per minute for 60 mins by UV-VIS spectrophotometry relative to pralidoxime; parameters: scale not given: the % may be the effect or the level left
[2] = target: Acetylcholinesterase (Electrophorus electricus) (UniProt O42275); experiment: Reactivation of diisopropylfluorophosphate-inhibited electric eel AChE using acetylcholine as substrate assessed as change in optical density per minute for 60 mins by UV-VIS spectrophotometry

Amino acid sequences for entries named in this document (tags omitted). A change or cut given only in a name is not applied to a line headed by its entry.
UniProt O42275: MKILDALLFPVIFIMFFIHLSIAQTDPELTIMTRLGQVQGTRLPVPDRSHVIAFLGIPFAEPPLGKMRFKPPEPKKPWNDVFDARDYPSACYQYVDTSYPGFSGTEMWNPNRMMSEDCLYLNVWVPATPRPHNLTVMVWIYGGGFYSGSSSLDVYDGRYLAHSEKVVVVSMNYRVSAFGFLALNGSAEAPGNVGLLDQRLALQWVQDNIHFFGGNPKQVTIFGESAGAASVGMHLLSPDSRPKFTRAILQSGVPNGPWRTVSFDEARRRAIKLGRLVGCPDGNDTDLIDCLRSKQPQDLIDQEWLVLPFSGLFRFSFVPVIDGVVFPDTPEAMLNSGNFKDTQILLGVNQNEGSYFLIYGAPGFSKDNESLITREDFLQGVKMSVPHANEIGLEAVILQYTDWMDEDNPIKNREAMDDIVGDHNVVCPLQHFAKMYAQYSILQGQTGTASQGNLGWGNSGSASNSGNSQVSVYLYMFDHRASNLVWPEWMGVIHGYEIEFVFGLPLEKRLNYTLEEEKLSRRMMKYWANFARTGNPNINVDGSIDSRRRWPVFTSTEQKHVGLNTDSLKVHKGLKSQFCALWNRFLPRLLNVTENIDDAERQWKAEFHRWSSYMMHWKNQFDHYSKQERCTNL

In the case of COc1cc(NCCCCN)c2nccc(C)c2c1, the Activity [1] is reported as 25.8% and the Kr [2] is reported as 10.1 mmol/min.
With C[n+]1ccccc1C=NO the Kr [2] was 2.61 mmol/min.
O=C1CC(NCC(SP(=O)(O)O)c2ccccc2)C(=O)N1 (stereo not given) was tested, and the Activity [1] was 50.2% and the Kr [2] was 5.2 mmol/min.
Work on CC(=O)NC1=C(NCCO)C(=O)c2ccccc2C1=O yielded an Activity [1] of 21.6% and a Kr [2] of 12.1 mmol/min.
Work on O=C1OCCN1CCCN1C(=O)c2ccccc2C1=O yielded an Activity [1] of 29.7% and a Kr [2] of 8.8 mmol/min.
NC(=O)CCNCCSC(=O)c1ccccc1 showed an Activity [1] of 114% and a Kr [2] of 2.3 mmol/min.
O=[N+]([O-])c1ccc(NS(=O)(=O)c2ccc(Cl)cc2)cc1 gave an Activity [1] of 24.6% and a Kr [2] of 10.6 mmol/min.
Work on CS(=O)(=O)SCCOC(=O)Nc1ccccc1 yielded an Activity [1] of 56.7% and a Kr [2] of 4.6 mmol/min.
In the case of COc1ccc(C(=O)CSS(=O)(=O)c2ccccc2)cc1, the Activity [1] is reported as 50.2% and the Kr [2] is reported as 5.2 mmol/min.
O=C(O)CN(CCc1ccccc1)CCN(CC(=O)O)CC(=O)O showed an Activity [1] of 19.2% and a Kr [2] of 13.6 mmol/min.
For Nc1ccc(S(=O)(=O)NCC(O)CO)cc1 (stereo not given), the Activity [1] was 20.9% and the Kr [2] was 12.5 mmol/min.
O=[N+]([O-])c1ccc(OS(=O)(=O)c2ccccc2)c(Cl)c1 gave an Activity [1] of 28.1% and a Kr [2] of 9.3 mmol/min.
For CC(=O)c1ccc(S(=O)(=O)c2ccccc2)cc1, the Activity [1] was 20.9% and the Kr [2] was 12.5 mmol/min.

Source: ChEMBL document CHEMBL3407396, “Discovery of non-oxime reactivators using an in silico pharmacophore model of reactivators for DFP-inhibited acetylcholinesterase” (2015)
